# Where a name gives a salt, the structure may show the parent alone.
# The chains behind the UniProt entries cited, without tags or fusion partners. Residues count along the entry.
# UniProt P07333, 20-972: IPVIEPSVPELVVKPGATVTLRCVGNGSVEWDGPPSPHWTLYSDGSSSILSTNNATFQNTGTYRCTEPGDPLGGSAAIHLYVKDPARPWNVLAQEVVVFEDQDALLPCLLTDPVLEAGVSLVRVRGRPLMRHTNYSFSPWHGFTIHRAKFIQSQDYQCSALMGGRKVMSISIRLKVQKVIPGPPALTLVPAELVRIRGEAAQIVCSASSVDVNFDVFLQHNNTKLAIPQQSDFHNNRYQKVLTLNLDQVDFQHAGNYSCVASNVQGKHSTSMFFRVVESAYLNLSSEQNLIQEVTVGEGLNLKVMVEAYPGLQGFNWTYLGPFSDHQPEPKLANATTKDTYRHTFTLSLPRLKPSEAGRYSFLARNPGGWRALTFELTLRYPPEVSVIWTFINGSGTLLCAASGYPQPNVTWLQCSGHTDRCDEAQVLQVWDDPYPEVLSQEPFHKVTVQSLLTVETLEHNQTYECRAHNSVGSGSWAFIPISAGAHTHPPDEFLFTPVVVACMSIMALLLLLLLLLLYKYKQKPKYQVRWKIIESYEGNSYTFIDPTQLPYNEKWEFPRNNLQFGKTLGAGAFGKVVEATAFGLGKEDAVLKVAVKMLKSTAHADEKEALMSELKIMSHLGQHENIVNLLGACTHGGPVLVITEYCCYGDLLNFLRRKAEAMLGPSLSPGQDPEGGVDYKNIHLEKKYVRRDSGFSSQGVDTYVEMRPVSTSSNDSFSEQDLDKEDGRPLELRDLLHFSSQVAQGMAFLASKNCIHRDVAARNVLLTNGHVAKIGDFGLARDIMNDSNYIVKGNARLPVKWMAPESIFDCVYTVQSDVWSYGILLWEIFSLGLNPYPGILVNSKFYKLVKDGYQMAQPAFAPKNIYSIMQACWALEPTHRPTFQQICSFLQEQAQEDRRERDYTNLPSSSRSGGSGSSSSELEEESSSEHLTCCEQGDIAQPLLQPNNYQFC
# Target: CSF-1R (c-fms) (Homo sapiens (Human), UniProt P07333)
# Test: Fluorescence polarization competition immunoassay (1 nM c-fms; peptide Pi assay)
# Assay type: biochemical
# Conditions: inhibition of CSF-1R phosphorylation of SYEGNSYTFIDPTQ peptide; 1 mM ATP; read-out: 1 nM c-fms; peptide Pi assay - IC-50
smiles,measurement,value
"CCOC(=O)Cc1ccc(NC(=O)c2cc(C#N)c[nH]2)c(C2=CCC(C)(C)CC2)n1 [Example 50, [5-[(4-Cyano-1H-pyrrole-2-carbonyl)-amino]-6-(4,4-dimethyl-cyclohex-1-enyl)-pyridin-2-yl]-acetic acid ethyl ester trifluoroacetic acid salt]",IC50,60 nM
